# Results reported in patent US20060063782A1, “3-Hetero arylmethoxy ! pyridines and their analogues as p38 map kinase inhibitors” (priority 2002, published 2006).
# By UniProt entry, the sequences of proteins in these tests, tags left out.
# UniProt Q16539, whole entry: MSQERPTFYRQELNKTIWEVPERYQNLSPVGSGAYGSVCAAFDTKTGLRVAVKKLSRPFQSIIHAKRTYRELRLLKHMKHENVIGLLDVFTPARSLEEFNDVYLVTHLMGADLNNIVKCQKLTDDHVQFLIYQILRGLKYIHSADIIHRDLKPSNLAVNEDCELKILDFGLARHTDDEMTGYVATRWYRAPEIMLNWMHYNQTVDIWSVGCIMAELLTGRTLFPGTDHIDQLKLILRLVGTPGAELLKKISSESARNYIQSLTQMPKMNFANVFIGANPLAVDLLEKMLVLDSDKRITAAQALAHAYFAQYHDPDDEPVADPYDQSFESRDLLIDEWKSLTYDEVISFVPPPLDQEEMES
# Target: p38 MAP kinase (Homo sapiens, UniProt Q16539)
# Assay: p38 MAP Kinase Assay (33P incorporation into myelin basic protein, filter plate)
row,IC50,Compound
1,< 200 µM,"Nc1ncccc1OCc1cccc2ccccc12 [Compound 5, 2-amino-3-(1-naphthylmethyloxy)pyridine]"
2,< 2000 µM,"c1ccc(COc2cccnc2)cc1 [Compound 7, 3-Benzyloxypyridine]"
3,< 200 µM,OCCNc1ccc(OCc2c(Cl)cccc2Cl)cn1 [Compound 48]
4,< 200 µM,CC(C)(CO)Nc1ccc(OCc2c(Cl)cccc2Cl)cn1 [Compound 74]
